Laboratory results: publication PMC10350927 (Journal of Medicinal Chemistry, 2023)
Structures can show the parent of a compound that is named as a salt.

Biological target: T1, mSUCNR1 (Mus musculus, UniProt Q99MT6)
T1 sequence (Q99MT6 1-317): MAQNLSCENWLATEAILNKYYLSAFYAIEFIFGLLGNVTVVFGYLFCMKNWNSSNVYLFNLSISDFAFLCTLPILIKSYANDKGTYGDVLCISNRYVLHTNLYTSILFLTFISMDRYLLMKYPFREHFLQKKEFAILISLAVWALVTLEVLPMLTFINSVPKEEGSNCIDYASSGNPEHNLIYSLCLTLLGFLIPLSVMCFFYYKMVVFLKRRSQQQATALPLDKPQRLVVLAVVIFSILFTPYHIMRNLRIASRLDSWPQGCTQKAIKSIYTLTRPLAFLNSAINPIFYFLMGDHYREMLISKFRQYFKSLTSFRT
Test: cAMP assay, agonist potency at mSUCNR1
Format: cell-based
Set-up: expressed in transfected cells; host or cells: Flp-In T-REx 293
Settings: Flp-In T-REx 293 cells

| Structure (SMILES) | Emax [%] |
| --- | --- |
| O=C(O)C[C@H](NC(=O)c1cccc(-c2ccc(OC(F)(F)F)cc2)n1)C(=O)O [Compound 3, reference compound] | 75 |
| CC(C)(C)OC(=O)NCCCOc1ccc(-c2ccc(C(=O)N[C@@H](CC(=O)O)C(=O)O)o2)cc1 [Compound 8a, (5-(4-(3-((tert-Butoxycarbonyl)amino)propoxy)phenyl)furan-2-carbonyl)-L-aspartic acid] | 93 |
| CC(C)(C)OC(=O)NCCCCOc1ccc(-c2ccc(C(=O)N[C@@H](CC(=O)O)C(=O)O)o2)cc1 [Compound 8b, (5-(4-(4-((tert-Butoxycarbonyl)amino)butoxy)phenyl)furan-2-carbonyl)-L-aspartic acid] | 89 |
| CC(C)(C)OC(=O)NCCCCCOc1ccc(-c2ccc(C(=O)N[C@@H](CC(=O)O)C(=O)O)o2)cc1 [Compound 8c, (5-(4-((5-((tert-Butoxycarbonyl)amino)pentyl)oxy)phenyl)furan-2-carbonyl)-L-aspartic acid] | 84 |
| CC(C)(C)OC(=O)NCCCCCCOc1ccc(-c2ccc(C(=O)N[C@@H](CC(=O)O)C(=O)O)o2)cc1 [Compound 8d, (5-(4-((6-((tert-Butoxycarbonyl)amino)hexyl)oxy)phenyl)furan-2-carbonyl)-L-aspartic acid] | 92 |
| NCCCOc1ccc(-c2ccc(C(=O)N[C@@H](CC(=O)O)C(=O)O)o2)cc1 [Compound 9a, (S)-3-(4-(5-((1,2-Dicarboxyethyl)carbamoyl)furan-2-yl)phenoxy)propan-1-aminium 2,2,2-trifluoroacetate] | 105 |
| NCCCCOc1ccc(-c2ccc(C(=O)N[C@@H](CC(=O)O)C(=O)O)o2)cc1 [Compound 9b, (5-(4-(4-Aminobutoxy)phenyl)furan-2-carbonyl)-L-aspartic acid hydrochloride] | 113 |
| NCCCCCOc1ccc(-c2ccc(C(=O)N[C@@H](CC(=O)O)C(=O)O)o2)cc1 [Compound 9c, (S)-5-(4-(5-((1,2-Dicarboxyethyl)carbamoyl)furan-2-yl)phenoxy)pentan-1-aminium 2,2,2-trifluoroacetate] | 102 |
| CC(C)(C)OC(=O)NCCCOc1ccc(-c2cccc(C(=O)N[C@@H](CC(=O)O)C(=O)O)n2)cc1 [Compound 15a, (6-(4-(3-((tert-Butoxycarbonyl)amino)propoxy)phenyl)picolinoyl)-L-aspartic acid] | 79 |
| CC(C)(C)OC(=O)NCCCCOc1ccc(-c2cccc(C(=O)N[C@@H](CC(=O)O)C(=O)O)n2)cc1 [Compound 15b, (6-(4-(4-((tert-Butoxycarbonyl)amino)butoxy)phenyl)picolinoyl)-L-aspartic acid] | 75 |
| CC(C)(C)OC(=O)NCCCCCOc1ccc(-c2cccc(C(=O)N[C@@H](CC(=O)O)C(=O)O)n2)cc1 [Compound 15c, (6-(4-((5-((tert-Butoxycarbonyl)amino)pentyl)oxy)phenyl)picolinoyl)-L-aspartic acid] | 84 |
| CC(C)(C)OC(=O)NCCCCCCOc1ccc(-c2cccc(C(=O)N[C@@H](CC(=O)O)C(=O)O)n2)cc1 [Compound 15d, (6-(4-((6-((tert-Butoxycarbonyl)amino)hexyl)oxy)phenyl)picolinoyl)-L-aspartic acid] | 74 |
| CC(C)(C)OC(=O)NCCOCCOc1ccc(-c2cccc(C(=O)N[C@@H](CC(=O)O)C(=O)O)n2)cc1 [Compound 15e, (6-(4-(2-(2-((tert-Butoxycarbonyl)amino)ethoxy)ethoxy)phenyl)picolinoyl)-L-aspartic acid] | 86 |
| CC(C)(C)OC(=O)NCCNCCCCCCOc1ccc(-c2ccc(C(=O)N[C@@H](CC(=O)O)C(=O)O)o2)cc1 [Compound 17, (S)-N-(2-((tert-Butoxycarbonyl)amino)ethyl)-6-(4-(5-((1,2-dicarboxyethyl)carbamoyl)furan-2-yl)phenoxy)hexan-1-aminium 2,2,2-trifluoroacetate] | 101 |
| CNCCCCCCOc1ccc(-c2ccc(C(=O)N[C@@H](CC(=O)O)C(=O)O)o2)cc1 [Compound 20, (S)-6-(4-(5-((1,2-Dicarboxyethyl)carbamoyl)furan-2-yl)phenoxy)-N-methylhexan-1-aminium 2,2,2-trifluoroacetate] | 103 |
| CN(C)CCCCCCOc1ccc(-c2ccc(C(=O)N[C@@H](CC(=O)O)C(=O)O)o2)cc1 [Compound 21, (S)-6-(4-(5-((1,2-Dicarboxyethyl)carbamoyl)furan-2-yl)phenoxy)-N,N-dimethylhexan-1-aminium 2,2,2-trifluoroacetate] | 98 |
| O=C(O)C[C@H](NC(=O)c1ccc(-c2ccc(OCCCCCCNCCNc3ccc([N+](=O)[O-])c4nonc34)cc2)o1)C(=O)O [Compound 22, (S)-6-(4-(5-((1,2-Dicarboxyethyl)carbamoyl)furan-2-yl)phenoxy)-N-(2-((7-nitrobenzo[c][1,2,5]oxadiazol-4-yl)amino)ethyl)hexan-1-aminium 2,2,2-trifluoroacetate] | 110 |
